# Source: patent US11179663B1, “Polyurethane-based materials” (Aviro LLC, priority 2021, dated 2021)
# Test system: COVID-19
# Assay: coronavirus deactivation test after attachment to the surfaces, qPCR for genes indicative of COVID-19 activity
# Conditions: Example 3, foam coated with a single antiviral compound
compound,measurement,value
"CCCCCCCCCCCCCCCCCC[N+](C)(C)CCC[Si](OC)(OC)OC.[Cl-] [DMS, Dimethyloctadecyl[3-(trimethoxysilyl)propyl]ammonium chloride]",% Deactivated of that captured,42.8%
